Tested on: human duodenal organoids
Conditions: matrigel-embedded human duodenal organoids incubated in PBS containing FITC-dextran (4 kDa) for 30 minutes; fluorescence microscopy

Substance: Fluorescein isothiocyanate-dextran [4 kDa FITC-dextrans]
- translocation into the organoid lumen: confirming translocation

From publication PMC7516017, “Organoids to Study Intestinal Nutrient Transport, Drug Uptake and Metabolism – Update to the Human Model and Expansion of Applications” (Frontiers in Bioengineering and Biotechnology, 2020)
